Experimental findings from patent US20060046968A1, “Prodrug substituted benzoxazoles as estrogenic agents” (priority 2004, published 2006) are described below.

In assay [1] the test system is Sexually immature 129 SvE mice. The assay can be described thus: Mouse uterotrophic test procedure (Procedure 2). The assay is classed as in vivo. The note with it: compound 50 mg/kg s.c., days 22-25.
The subject of another assay is Lewis rats. Kind of assay: Lewis rat adjuvant-induced arthritis, treatment protocol: tarsal joint histology (synovitis, Mankin). The assay is classed as in vivo. The note with it: 50 mg/kg, tarsal joints. How it is done: Treatment test procedure: Thirty rats are injected intradermally with 0.1 mL of Freund's Adjuvant-Complete at the base of the tail. The animals are randomized to four groups, each group containing six rats. Each day, the groups receive vehicle (50% DMSO (JT Baker, Phillipsburg, N.J.)/1× Dulbecco's phosphate saline (GibcoBRL, Grand Island, N.Y.)) or test compound (administered subcutaneously).
All rats began treatment on Day 8 after adjuvant injection.

Each structure is given as a SMILES string. Several values for one entry are separate records, joined by “and”; a condition that tells them apart may be missing. Equal entries are not always repeated.

For `C=CCc1cc(O)cc2nc(-c3ccc(O)c(F)c3)oc12` [Example 34], the “mean uterine weight ± SEM” value in assay [1] was 10.3 ± 0.7 mg and 10.3 ± 0.69 mg.
As for `C=Cc1cc(O)cc2nc(-c3ccc(O)c(F)c3)oc12` [Example 24, 2-(3-FLUORO-4-HYDROXYPH ENYL)-7-VI NYL-1,3-BENZOXAZOL-5-OL], in the assay on Lewis rats, the “Synovial Structure (0-3), mean ± SD” value was 1.42 ± 0.49.
